Results reported in PMC5814754, “Quantitative, Wide-Spectrum Kinase Profiling in Live Cells for Assessing the Effect of Cellular ATP on Target Engagement” (Cell Chemical Biology, 2018).

The chains behind the UniProt entries cited, without tags or fusion partners.
UniProt Q13546, whole entry: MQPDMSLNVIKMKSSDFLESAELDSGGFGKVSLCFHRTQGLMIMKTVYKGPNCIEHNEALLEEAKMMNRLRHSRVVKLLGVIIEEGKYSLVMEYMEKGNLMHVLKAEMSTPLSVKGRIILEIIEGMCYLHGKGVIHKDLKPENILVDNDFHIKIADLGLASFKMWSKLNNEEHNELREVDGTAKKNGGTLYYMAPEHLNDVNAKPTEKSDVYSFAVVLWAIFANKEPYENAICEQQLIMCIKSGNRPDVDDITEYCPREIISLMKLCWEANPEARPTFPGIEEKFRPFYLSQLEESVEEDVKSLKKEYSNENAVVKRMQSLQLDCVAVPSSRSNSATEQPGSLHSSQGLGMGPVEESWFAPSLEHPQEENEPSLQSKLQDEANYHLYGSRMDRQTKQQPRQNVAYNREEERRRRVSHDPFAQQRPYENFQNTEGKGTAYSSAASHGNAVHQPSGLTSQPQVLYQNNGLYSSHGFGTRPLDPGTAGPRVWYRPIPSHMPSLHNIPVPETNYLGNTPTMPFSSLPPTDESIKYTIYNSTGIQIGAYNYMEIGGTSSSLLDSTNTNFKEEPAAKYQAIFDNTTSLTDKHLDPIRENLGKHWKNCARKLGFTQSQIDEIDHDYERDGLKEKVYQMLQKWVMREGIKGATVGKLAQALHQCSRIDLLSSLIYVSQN

Biological target: RIPK1 (Homo sapiens, UniProt Q13546)

Question: How did the IC50 turn out when CN1C(=O)C(Cc2c[nH]c3ccccc23)NC1=S (stereo not shown) was run?
Answer: Its IC50 is 73.1 nM and 107 nM.

Several values for one entry are separate records, joined by “and”; a condition that tells them apart may be missing. Identical values can stand only once.
